## Yeast mating assay B: variants of the scFv Ab-14

Target peptide (SARS-CoV-2 spike, HR2 region): PDVDLGDISGINAS

The variants keep the heavy chain, the linker and the frameworks of Ab-14 (scFv order VH, a (GGGGS)3 linker, VL).
VH: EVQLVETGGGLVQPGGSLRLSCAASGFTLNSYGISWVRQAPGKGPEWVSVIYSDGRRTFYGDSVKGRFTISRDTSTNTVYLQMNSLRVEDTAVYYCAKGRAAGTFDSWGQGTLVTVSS
VL: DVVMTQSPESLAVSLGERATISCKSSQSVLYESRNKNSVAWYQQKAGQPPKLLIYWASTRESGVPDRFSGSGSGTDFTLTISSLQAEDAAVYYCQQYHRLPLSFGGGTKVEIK

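The parent was found by panning a naive human phage display library on the peptide. These sequences belong to a second round, designed from the earlier measurements on random variants of the parent. Several design methods are mixed in this list. In AlphaSeq, yeast of one mating type display the scFv and yeast of the other type display the target. After mating in shaken culture at 30 °C for 16 h, diploids were selected and their barcode pairs sequenced. The ratio of observed to expected reads was calibrated, replicate by replicate, on BCL2-family standards whose Kd was known from biolayer interferometry. There are six technical replicates.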

The parent's light chain CDRs are KSSQSVLYESRNKNSVA, WASTRES, QQYHRLPLS; each variant's own CDRs replace them letter for letter.
Kd is apparent (estimated from mating counts) and averaged on the log scale over replicates with a signal. Smaller is tighter.
A pair that was not seen in any replicate is written "nd"; this usually means weak binding, but a binder can also be missed.
In the paper, a design with two or fewer of six values counts as a poor binder.

| # | CDR-L1 | CDR-L2 | CDR-L3 | Kd (apparent) | seen in |
|---|---|---|---|---|---|
| 1 | KVYQGINGHYGAHSSIA | QEETRLD | QQYAHLPLS | 13 nM | 6 of 6 |
| 2 | KSSQSVLYESRNKNPVA | WASTRES | YQYHRLPWS | nd | 0 of 6 |
| 3 | TISQSTYWEQFNKNSVA | QTSTREE | QDYDRLPLS | 290 nM | 1 of 6 |
| 4 | AIDSHGLGTQEYYNSIA | EEHVKVR | QQYDKLPLS | 34 nM | 5 of 6 |
| 5 | KLDQSQLYESRMKNSVA | NASTRES | QQYHRLPLS | 1.9 nM | 6 of 6 |
| 6 | KVSQSVLYESRNKNNVA | GASTRES | QQYHRLPLS | 350 pM | 6 of 6 |
| 7 | KWSQSVLYNYRNKNSLA | GASTRES | QQYHRLPLS | 3.4 nM | 6 of 6 |
| 8 | KLSQSYLYEERNKNSVA | NASQRES | QQYHRLPLS | 420 pM | 6 of 6 |
| 9 | KISQEVWYESRNKNSVA | GASQRES | QQYHRLPLS | 2.3 nM | 6 of 6 |
| 10 | KFEQLVLPEQRNKNSVA | NASLRED | QQYHRLPLS | 4.8 nM | 6 of 6 |
| 11 | KMSQSQEYESRNSNAVA | NASQRLT | QQYHRLPLS | 1.6 nM | 6 of 6 |
| 12 | KSEQSQLYESRNKNSVA | NASTRES | QQYHRLPLS | 4.3 nM | 6 of 6 |
| 13 | MISDLTMYGMRNKNSVA | DSSTRGS | QQYHRLPLS | 900 pM | 6 of 6 |
| 14 | AFSEHAFYGQRDENAIA | GADVRAK | QQYWRLPLT | 3.4 nM | 6 of 6 |
| 15 | KLSQSWLYESRNKNHVA | GASTREN | QQYHRLPLS | 1.3 nM | 6 of 6 |
| 16 | KYSGSELGEQRNKNSVA | NASTREE | QQYHRLPLS | 550 pM | 6 of 6 |
| 17 | KLQMSTLYESRNKNSVA | NASTRES | QQYHRLPLS | 290 pM | 6 of 6 |
| 18 | KLSSEYFDSYGERQAVA | ENEATMN | QQYSLLPLS | 240 nM | 3 of 6 |
| 19 | KLMMFMQEIGCMKNNIA | NLKEGAR | QQYAQLPLV | nd | 0 of 6 |
| 20 | KLSQSFLMESRNKNSVA | EASTRES | QQYHRLPLS | 830 pM | 6 of 6 |
| 21 | MLSQMTGWGMKASNSVA | QASTRFT | QQYHRLPLI | 120 nM | 5 of 6 |
| 22 | KSQQSVLYESVNKNSVA | WASTREI | QQYFRLPLS | 59 nM | 6 of 6 |
| 23 | MISMMHASQYNEESSIA | NAEALNS | QQYHELPLS | 63 nM | 6 of 6 |
| 24 | KVSQSWQYESRNKQSVA | HASQREE | QQYHRLPLS | 1.5 nM | 6 of 6 |
| 25 | KSQQQYEYGDRNKNSVA | NASQRED | QQYHRLPLS | 780 pM | 6 of 6 |
| 26 | KVEIFMWTMDNQNQHIA | NGAEERP | QQYQRLPLS | nd | 0 of 6 |
| 27 | KLSQSMLYESRMKNSVA | NASQRMS | QQYHRLPLS | 830 pM | 6 of 6 |
| 28 | KFQQESNNMNDNQNSVA | EESMVQY | QHYWRLPLT | 23 nM | 2 of 6 |
| 29 | MISQVLNTLSKTGNNVA | DLAERED | QQYFRLPLS | 52 nM | 6 of 6 |
| 30 | KSSQSVLYESRGKNSVA | DASTRES | QQYHRLPLS | 1.8 nM | 6 of 6 |
| 31 | NLSYLQGEPTNSVNNVA | QTSKRAP | QQYQRLPLC | 1.6 nM | 6 of 6 |
| 32 | TISQMTSVFSQSINNVA | EVSMRES | QQYDRLPLI | 14 nM | 6 of 6 |
| 33 | KSSQSVLFESRSKNSVA | HASTRES | QQYHRFPLS | 150 nM | 5 of 6 |
| 34 | IISGSMVMESKHKNSVA | NAETREY | QHYDRLPLS | 28 nM | 6 of 6 |
| 35 | KIQQLVLYESRNKNSVA | NASTRFS | QAYHRLPLS | 4.2 nM | 6 of 6 |
| 36 | KLSQITGHLSVSKNNVA | EMVTRVN | QQYARLPLS | 1.1 nM | 6 of 6 |
| 37 | RVSSNLMAGGIHYNNIA | NTKVLEY | QQYMRLPLG | 3.2 nM | 6 of 6 |
| 38 | MFSQAVMYGSFYRNSVA | QTSTRES | QQYDRLPLS | 3.8 nM | 6 of 6 |
| 39 | KSSQSDLYESRNKNSVA | WASTREQ | QQYHRLPLS | 14 nM | 6 of 6 |
| 40 | KLSESELYESRNKNSVA | HASTRES | QQYHRLPLS | 2.0 nM | 6 of 6 |
| 41 | KLDQSFLYESRNKNSVA | EASERES | QQYHRLPLS | 600 pM | 6 of 6 |
| 42 | KLGQGVLYESRNKNSVA | GASTRES | QQYHRLPLS | 410 pM | 6 of 6 |
| 43 | KYSFSDGNESRNKNSVA | DASTRES | QQYHRLPLS | 680 pM | 6 of 6 |
| 44 | KFSQQVLYESRTKNSVA | NASWRES | QQYHRHPLS | 45 nM | 6 of 6 |
| 45 | KMSQSDLYESRNKNSVA | EASTRES | QQYHRLPLS | 1.1 nM | 6 of 6 |
| 46 | KSSQSWLYESHNKNSVK | GASTRES | QQYHRLPLS | nd | 0 of 6 |
| 47 | MVSQLMLWGMHVKNSIA | EAVTRIN | QQYDRLPLI | nd | 0 of 6 |
| 48 | KLKELFNMWARAQGNVA | DATERNT | QQYSRLPIC | 7.4 nM | 6 of 6 |
| 49 | QIFQKLQEHGNGIANVA | QGAELRN | QQYFVLPLT | 28 nM | 6 of 6 |
| 50 | MISQIYNMGQFAINSVA | QASIRNS | QQYDRLPLI | nd | 0 of 6 |
| 51 | RIRESMFYSHEGRRNIA | QAQIREI | QQYSQLPLF | 4.4 nM | 6 of 6 |
| 52 | KLSESVLYESRNKNSVA | NASTRLS | QQYHRLPLS | 1.2 nM | 6 of 6 |
| 53 | KCSLSVLFESRNKNSVA | NASTRES | QQYHRLPLS | 1.6 nM | 6 of 6 |
| 54 | KSSISHLYESRNKNSVA | EASTRES | QQYHRLPLS | 1.5 nM | 6 of 6 |
| 55 | KLSVSMLLESFHRNNVA | ENSTREE | QHYHRLPLS | nd | 0 of 6 |
| 56 | KSSQSVLYESRNKNSVA | TASTHES | VQYHRLPLS | nd | 0 of 6 |
| 57 | KSSQSVLYESRNKNSVA | AASTREL | QQYARLPLS | 2.2 nM | 6 of 6 |
| 58 | KFSQSWLYESRQKNSVA | NASQRES | QQYHRLPLS | 710 pM | 6 of 6 |
| 59 | KSSISYLIESRNKNSVA | DASTRES | QQYHRLPLS | 190 pM | 6 of 6 |
| 60 | KSLQSVLYESRDKNSVA | GASTRED | QQYHRLPLS | 1.1 nM | 6 of 6 |
| 61 | SITQLVAYGSRNKNSVA | QMSTREN | QQYDRLPLA | 6.3 nM | 6 of 6 |
| 62 | KLSQSVGYESRNKNSVA | HASTRES | QQYHRLPLS | 640 pM | 6 of 6 |
| 63 | KMSQPLLYESRNCNSVA | AASTRES | QQYHRLPLS | 78 nM | 6 of 6 |
| 64 | KLSMVTGHLSMAKNNVA | EMVTRCK | QQYNRLPLS | 2.1 nM | 6 of 6 |
| 65 | KLLDWEYGTWAMNSAIA | DAALESD | QQYDRLPLT | 100 nM | 4 of 6 |
| 66 | KLQQSDLYESRNKNNVA | EATLREQ | QQYHRLPLS | 800 pM | 6 of 6 |
| 67 | KLYQSTLYESRNQNSVA | NASTRES | QQYHRLPLS | 2.2 nM | 6 of 6 |
| 68 | KISQMVRVGSTKQNSIA | EEETRAD | QQYHRLPLS | 2.7 nM | 6 of 6 |
| 69 | KTGQGVLYESRNKNSVA | GASQRES | QQYHRLPLS | 890 pM | 6 of 6 |

Repeated from above, the 9 best binders with a signal in all replicates:

CDR-L1,CDR-L2,CDR-L3,Kd (apparent),seen in
KSSISYLIESRNKNSVA,DASTRES,QQYHRLPLS,190 pM,6 of 6
KLQMSTLYESRNKNSVA,NASTRES,QQYHRLPLS,290 pM,6 of 6
KVSQSVLYESRNKNNVA,GASTRES,QQYHRLPLS,350 pM,6 of 6
KLGQGVLYESRNKNSVA,GASTRES,QQYHRLPLS,410 pM,6 of 6
KLSQSYLYEERNKNSVA,NASQRES,QQYHRLPLS,420 pM,6 of 6
KYSGSELGEQRNKNSVA,NASTREE,QQYHRLPLS,550 pM,6 of 6
KLDQSFLYESRNKNSVA,EASERES,QQYHRLPLS,600 pM,6 of 6
KLSQSVGYESRNKNSVA,HASTRES,QQYHRLPLS,640 pM,6 of 6
KYSFSDGNESRNKNSVA,DASTRES,QQYHRLPLS,680 pM,6 of 6

As a blank, each scFv also met three strains without target: over all light chain designs, 4% of these pairings were detected, typically at 430 nM and seldom below 38 nM.
The parent sequence was in this pool as ten entries: three were never detected, three once, and four in most replicates, with averages from 2.2 nM to 240 nM.
A sequence measured in both rounds can read differently, since the two assays cover different ranges.

Source: Li et al. 2023 (doi:10.1038/s41467-023-39022-2), MIT Lincoln Laboratory and A-Alpha Bio; data file from the FLAb repository.